Data from PubChem BioAssay AID1845228.

Details: pampa; 60.0 min; 50.0 µM

Structure (SMILES): CCn1c(=O)n([C@@H]2CCN(CC3CCCCCCC3)C[C@H]2CO)c2ccccc21
- Papp: 57 ×10⁻⁶ cm/s
